Only a part is listed here, and it is no random draw. Results filed as inconclusive are left out. Entries that show only a call come without a potency. Activity calls are given as the source filed them. Calls come from the whole dose curve; as a rule, active = well fitted cell-killing curve with a large enough effect in the repeat runs; inconclusive = weak or mixed curves, or effect the other way; inactive = no such curve, though single readings can be large or run the other way.
Experiment: qHTS assay for identifying genotoxic compounds that show differential cytotoxicity against isogenic chicken DT40 cell lines with known DNA damage response pathways - Rev3 mutant cell line (AID 743014); note: nearly all actives have a fitted effect of over 55% in size
Settings: chicken DT40 Rev3-/- viability, CellTiter-Glo, 40 h; series mostly up to 68.4 µM
Text: National Center for Advancing Translational Sciences [NCATS]
NIH Chemical Genomics Center [NCGC]
U.S. Environmental Protection Agency [EPA]
National Institutes of Environmental Health Sciences [NIEHS]
National Toxicology Program [NTP]
U.S. Food and Drug Administration [FDA]
DNA repair pathways play a critical role in cellular homeostasis by repairing DNA damage induced by endogenous processes and xenobiotics. Isogenic chicken DT40 cell lines deficient in different DNA repair pathways can be used to identify genotoxic compounds and aid in characterizing the nature of the DNA damage induced. Two DNA repair-deficient cell lines with disrupted genes, Rad54/Ku70 or Rev3, were used to screen the Tox21 10K compound library. Possible genotoxicity was based on the presence of a significant increase in cytotoxicity in one or more of the DNA repair-deficient cell lines compared to that observed in the parental DNA repair-proficient cell line. CellTiter Glo viability assay (Promega, Madison, WI) was used to measure cell viability in these cells after compound treatment. This assay includes the data from the Rev3 mutant cell line.
Tox21 Assay Protocol Summary:
300 DT40 mutant cells in 5 uL/well were dispensed into white, solid-bottom 1536-well plates using a Multidrop Combi (ThermoFisher Scientific, Waltham, MA) dispenser. After the assay plates were incubated at 37 C/5% CO2 for approximately 0.5 hour, 23 nL of compounds dissolved in DMSO, positive controls or DMSO only was transferred into the assay plate by a pintool work station (Kalypsys, San Diego, CA). The assay plates were incubated at 37 C/5% CO2 for 40 hours. After 5 uL per well of CellTiter-Glo reagent was added into each well of the assay plates, the plates were incubated for 30 min at room temperature and the luminescence intensity of the plates was measured using a ViewLux (PerkinElmer, Shelton, CT) plate reader.
With `NC(=O)Nc1ccc([As](=O)(O)O)cc1` the Potency was “inactive”. With `CC(C)CCCCCCCOP(OCCCCCCCC(C)C)Oc1ccccc1` the Potency was “inactive”. In the case of `ClP(Cl)c1ccccc1`, the Potency is reported as “inactive”. In the case of `COC(=O)Cl`, the Potency is reported as “inactive”. In the case of `O=[P+](Oc1ccccc1)Oc1ccccc1`, the Potency is reported as “inactive”. For `COP(=S)(Cl)OC`, the Potency was active: 61.7 µM. With `CN(C(=O)Cc1ccccc1)[C@H]1CC[C@@]2(CCCO2)C[C@@H]1N1CCCC1` the Potency was “inactive”. With `O=C1C2CC=CCC2C(=O)N1SC(Cl)(Cl)C(Cl)Cl` (configuration not stated) the Potency was active: 0.0039 µM. In the case of `CCCCO[P+](=O)OCCCC`, the Potency is reported as “inactive”. In the case of `CC(C)OP(=S)(OC(C)C)SCCNS(=O)(=O)c1ccccc1`, the Potency is reported as active: 8.63 µM. In the case of `CCOP(=S)(CC)Sc1ccccc1` (configuration not stated), the Potency is reported as “inactive”. For `O=C(OC1CN2CCC1CC2)c1ccccc1` (configuration not stated), the Potency was “inactive”. In the case of `O=[p+]1oc2ccccc2c2ccccc21` (configuration not stated), the Potency is reported as “inactive”. In the case of `CCCCC(CC)CO[P+](=O)OCC(CC)CCCC` (configuration not stated), the Potency is reported as “inactive”. In the case of `N#CSc1ccc([N+](=O)[O-])cc1[N+](=O)[O-]`, the Potency is reported as active: 1.22 µM. In the case of `CCOC(=O)Cl`, the Potency is reported as “inactive”. With `O=P(Cl)(Cl)c1ccccc1` the Potency was “inactive”. For `O=P(Cl)(Oc1ccccc1)Oc1ccccc1`, the Potency was “inactive”. With `O=[As]c1ccccc1` (configuration not stated) the Potency was active: 0.077 µM. For `CCNC(C)Cc1ccc2c(c1)OCO2` (configuration not stated), the Potency was active: 5.84 µM. With `CN(N=O)C(=N)N[N+](=O)[O-]` the Potency was active: 1.21 µM. For `CN(C(=O)Cc1ccc(Cl)c(Cl)c1)[C@H]1CC[C@@]2(CCCO2)C[C@@H]1N1CCCC1`, the Potency was active: 21.1 µM.

Source: PubChem BioAssay (Tox21)
Potency is the fitted concentration of half-maximal effect.
